Test results: US10758623B2, “Pharmaceutically active agent complexes, polymer complexes, and compositions and methods involving the same” (Durect Corporation, priority 2013, dated 2020)

Assay: Stability following exposure to gamma radiation, RPLC purity (Example 30)
Type: physicochemical
Details: relative to the complexed APIs, with a corresponding reduction in potency
Excerpt: The APIs were mixed with the complexable polymers at a ratio of 1:1, 1:4 or 1:10. The instantaneous precipitation was separated from reaction media (ammonium bicarbonate in water) and dried via lyophilization. The dried powder or the dried powder suspended in Benzyl Benzoate were loaded either in glass vial or plastic syringes (Intervene) and packed in aluminum pouches. These samples were exposed to gamma radiation (12.5 kGy-17.5 kGy) for more than 8 hrs at room temperature with radiation indicator sticker (Sterigenics, Corona, Calif.). These gamma irradiated samples were then analyzed for purity using reverse phase liquid chromatography (RPLC) in reference to non-gamma irradiated samples.

## Insulin
  stability after 15 kGy gamma irradiation, non-complexed API: degraded faster
